Here are results for two molecules from patent publication US20090275083A1, “Isolated peptides having phospholipase inhibitory activity” (published 2009).

This test has as its target T1, Thermomyces lanuginosus lipase (TLL) variant N248G/Q249G/P250T/N251L/I252G/P253L (Thermomyces lanuginosus).
T1 chain: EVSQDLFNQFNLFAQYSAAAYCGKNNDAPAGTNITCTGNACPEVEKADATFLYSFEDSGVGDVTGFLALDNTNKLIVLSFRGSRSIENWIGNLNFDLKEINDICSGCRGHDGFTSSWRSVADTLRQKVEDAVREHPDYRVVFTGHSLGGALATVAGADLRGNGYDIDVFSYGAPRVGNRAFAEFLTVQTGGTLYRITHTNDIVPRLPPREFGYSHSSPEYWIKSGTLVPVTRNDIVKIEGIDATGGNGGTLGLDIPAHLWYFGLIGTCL
The experiment in a line: cell-based or functional assay.

ATMTDAELEKKLNSYVQMDAEYVKNNQARS (modifications not checked) [Peptide P13 (K306A)]: the IC50 (half maximal inhibitory concentration; p-NP butyrate hydrolysis) (peptide/lipase ratio) was 1720. With ATMTDAELEKKLNSYVNMDKEYVKNNQARS (modifications not checked) [Peptide P12 (Q303N)], the IC50 (half maximal inhibitory concentration; p-NP butyrate hydrolysis) (peptide/lipase ratio) was 1690.
